Experimental findings from patent US20110003012A1, “TREATING PATIENTS WITH SUBARACHNOID HEMORRHAGE” (Duke University, priority 2007, published 2011) are described below.

Only a part of the results on these compounds is given; other tests are left out. Some results are limits rather than exact numbers.

The subject of this data set is subarachnoid hemorrhage. Briefly: Working Examples: patient with subarachnoid hemorrhage. Particulars: SNP 1 nmol/kg intravenously and potassium nitrite 50 nmol/kg.

Regarding sodium nitroprusside, the “Mean arterial blood pressure reduction” value is on record as not above 10%. In addition, the Vasospasm result (started within three hours) is “does not occur”.
